Results reported in paper PMC9295563, “A Reduced F420-Dependent Nitrite Reductase in an Anaerobic Methanotrophic Archaeon” (Journal of Bacteriology, 2022).

Test system: NO
Experiment: purified protein
Settings: 40 μM F420H2, 2-500 μM hydroxylamine, 0.5 mM DTT, pH 7 phosphate, anaerobic, kcat in electrons transferred per subunit

Substance: ANME2c-FsrII-6D (uncultured archaeon)
- Km: 11 ± 1 µM
- kcat: 2.17 s⁻¹
- kcat/Km: 12 ± 2 (NH2OH)
